Chains of the proteins cited; added tags and fusions are not shown.
UniProt Q9Y463, whole entry: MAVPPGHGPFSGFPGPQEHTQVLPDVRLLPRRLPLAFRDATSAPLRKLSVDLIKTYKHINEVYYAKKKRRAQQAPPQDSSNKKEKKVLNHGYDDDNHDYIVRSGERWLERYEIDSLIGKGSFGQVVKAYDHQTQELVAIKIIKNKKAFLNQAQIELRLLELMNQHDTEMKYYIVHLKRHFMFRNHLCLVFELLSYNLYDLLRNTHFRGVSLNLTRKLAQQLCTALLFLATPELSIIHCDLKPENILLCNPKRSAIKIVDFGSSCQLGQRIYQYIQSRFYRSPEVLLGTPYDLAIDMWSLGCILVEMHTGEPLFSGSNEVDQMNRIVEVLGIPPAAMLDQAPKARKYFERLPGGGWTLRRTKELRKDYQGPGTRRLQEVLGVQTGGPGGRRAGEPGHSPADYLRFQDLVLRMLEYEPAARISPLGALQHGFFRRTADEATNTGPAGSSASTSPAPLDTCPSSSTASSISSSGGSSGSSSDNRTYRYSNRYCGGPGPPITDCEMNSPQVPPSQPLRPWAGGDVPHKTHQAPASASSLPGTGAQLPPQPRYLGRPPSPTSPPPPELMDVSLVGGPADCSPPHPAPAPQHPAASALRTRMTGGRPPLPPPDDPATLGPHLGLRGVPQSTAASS

According to US9446044B2, “DYRK1 inhibitors and uses thereof” (DIAXONHIT, priority 2011, dated 2016):

What was measured:
DYRK1A = DYRK1A (Homo sapiens (Human), UniProt Q13627); assay: DYRK1A kinase assay (HotSpot, Reaction Biology); assay type: biochemical; conditions: purified recombinant kinase, 10 μM ATP, room temperature 120 min
DYRK1B = DYRK1B (Homo sapiens (Human), UniProt Q9Y463); assay: DYRK1B kinase assay (HotSpot, Reaction Biology); assay type: biochemical

IC50 (DYRK1A) [nM] | IC50 (DYRK1B) [nM] | Compound
24 | – | CCN1/C(=C/C(C)=O)Sc2ccc(OC)cc21 [TG003, reference compound]
– | 4460 | COC(=N)c1nc2ccc3ncnc(N(C)c4ccc(OC)c(OC)c4)c3c2s1 [Compound 52, Methyl 9-((3,4-dimethoxyphenyl)(methyl)amino)thiazolo[5,4-f]quinazoline-2-carbimidate]
– | 84.9 | COC(=N)c1nc2ccc3ncnc(N(C)c4ccc(OC)cc4)c3c2s1 [Compound 46, Methyl 9-((4-methoxyphenyl)(methyl)amino)thiazolo[5,4-f]quinazoline-2-carbimidate]
